# Patent US20260232826A1, “ANTIBODY-DRUG CONJUGATES AND THEIR USES” (Mablink Bioscience, priority 2022, published 2026)
# Protein sequences, listed by entry. Tags and fused reporters are not part of them. Residues count along the entry.
# UniProt P15328, 25-234: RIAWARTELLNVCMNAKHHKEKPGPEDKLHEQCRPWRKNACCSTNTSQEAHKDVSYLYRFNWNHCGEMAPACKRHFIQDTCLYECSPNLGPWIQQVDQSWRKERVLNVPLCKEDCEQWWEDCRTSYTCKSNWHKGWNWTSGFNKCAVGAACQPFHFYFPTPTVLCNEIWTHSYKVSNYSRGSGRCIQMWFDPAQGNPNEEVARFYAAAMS
# B1: M-SORAV (conjugate)
# heavy: QVQLVQSGAEVVKPGASVKISCKASGYTFTGYFMNWVKQSPGQSLEWIGRIHPYDGDTFYNQKFQGKATLTVDKSSNTAHMELLSLTSEDFAVYYCTRYDGSRAMDYWGQGTTVTVSSASTKGPSVFPLAPSSKSTSGGTAALGCLVKDYFPEPVTVSWNSGALTSGVHTFPAVLQSSGLYSLSSVVTVPSSSLGTQTYICNVNHKPSNTKVDKKV[gap - human IgG1 Fc]
# light: DIVLTQSPLSLAVSLGQPAIISCKASQSVSFAGTSLMHWYHQKPGQQPRLLIYRASNLEAGVPDRFSGSGSKTDFTLTISPVEAEDAATYYCQQSREYPYTFGGGTKLEIKRTVAAPSVFIFPPSDEQLKSGTASVVCLLNNFYPREAKVQWKVDNALQSGNSQESVTEQDSKDSTYSLSSTLTLSKADYEKHKVYACEVTHQGLSSPVTKSFNRGEC
# B2: F-LALA-VA-EXA (conjugate)
# heavy: EVQLVESGGGVVQPGRSLRLSCSASGFTFSGYGLSWVRQAPGKGLEWVAMISSGGSYTYYADSVKGRFAISRDNAKNTLFLQMDSLRPEDTGVYFCARHGDDPAWFAYWGQGTPVTVSSASTKGPSVFPLAPSSKSTSGGTAALGCLVKDYFPEPVTVSWNSGALTSGVHTFPAVLQSSGLYSLSSVVTVPSSSLGTQTYICNVNHKPSNTKVDKKV[gap - human IgG1 Fc with changes]
# light: DIQLTQSPSSLSASVGDRVTITCSVSSSISSNNLHWYQQKPGKAPKPWIYGTSNLASGVPSRFSGSGSGTDYTFTISSLQPEDIATYYCQQWSSYPYMYTFGQGTKVEIKRTVAAPSVFIFPPSDEQLKSGTASVVCLLNNFYPREAKVQWKVDNALQSGNSQESVTEQDSKDSTYSLSSTLTLSKADYEKHKVYACEVTHQGLSSPVTKSFNRGEC
# modifications: N-methyl
# Tests used:
# [1] = target: T1, extracellular human FRα expressed on cancerous cell lines (Homo sapiens, UniProt P15328); assay: Cell-binding affinity by flow cytometry; conditions: APC-labelled antibody or ADC, flow cytometry (FIG. 6)
# T1 construct: endogenous in cells; host or cells: human cancer cell lines (ATCC/DSMZ/ECACC); BT-474 as FRα-negative control
# Description: (§1) Antibody or ADC binding to extracellular human FRα expressed on cancerous cell lines is assessed by flow cytometry. Tested antibody or ADC is conjugated to APC fluorophore using LYNX Rapid APC Antibody Conjugation Kit according to the manufacturer's protocol (Bio-Rad, Cat #LNK032APC). Into 500000 cells (suspended in 100 μL of PBS in flow cytometry plastic tubes) is added 5 μL of a 10 μg/mL solution of tested APC-labelled antibody or ADC. Cells are incubated 20 min in the dark, are washed with PBS 3 times by centrifugation and are re-suspended in 200 μL of PBS for analysis. Flow cytometry is performed using a BD Fortessa flow cytometer controlled by BD FACSDiva software (BD Biosciences) and data are analyzed using FlowJo software (BD Bioscience).
# as §1, with “lines was” for “lines is”, “ADC was” for “ADC is”, “tubes) was” for “tubes) is”, “ADC. […]” for “ADC. Cells are incubated 20 min in the dark, are washed with PBS 3 times by centrifugation and are re-suspended in 200 μL of PBS for analysis.”, “cytometry was” for “cytometry is”, “data were” for “data are”
# [2] = tested on: recombinant cynomolgus FRα protein; assay: Recombinant FRα-binding by ELISA (cynomolgus); conditions: FIG. 4B
# Description: Sandwich ELISA assays were performed using 96-well high-binding ELISA plates (Corning Inc., New York, NY, USA, Cat #3590). Plates were coated using 100 μL/well of recombinant human FRα protein (Sino Biological cat #11241-H08H); recombinant cynomolgus FRα protein (Sino Biological cat #90950-C08H); recombinant rat FRα protein (Sino Biological cat #81073-R08H) or recombinant mouse FRα protein (Sino Biological cat #50573-M08H) in PBS (pH 7.4) at 2 μg/mL and incubated overnight at 4° C. After 2 washes with PBS-T (PBS+0.05% Tween-20), the plates were blocked with 200 μL/well of incubation buffer (PBS-T+0.1% BSA) for 1 h at room temperature. The plates were washed 4 times with PBS-T, and 100 μL of a threefold dilution series of tested compound (antibody or antibody-drug conjugate) was added. Then, the plates were incubated for 2 h at room temperature in the dark. After 5 washes with PBS-T, plates were incubated 1 h at room temperature with 100 μL/well of a goat anti-human IgG (H+L) HRP conjugated antibody (Jackson Immunoresearch cat #109-035-088), previously diluted 1:250000 in incubation buffer. After 5 washes with PBS-T, TMB substrate solution (Thermo-Fisher cat #N301) was added. Peroxidase activity was stopped with 0.18M H2SO4 and absorbance was read at 450 nm (reference wavelength 650 nm) using a Thermo Scientific MultiSkan EX microplate reader. […]
# PA-1 cancer model = assay: In vivo efficacy, PA-1 xenograft; parameters: species or system SCID mice; conditions: IV once at 3 mg/kg (FIG. 14)
# Text: Four to five-week-old female CB-17 severe combined immunodeficient (SCID) mice are obtained and quarantined for 7 days prior to study initiation. Mice are inoculated subcutaneously with cells (5-10×10^6 cells per mouse) resuspended in PBS (OV-90, SW-620, KB, BT-474 cell lines) or 50% BD Matrigel (Corning®) in PBS (PA-1, IGROV-1, OVCAR-3, NCI-H2110 cell lines). When average tumor volume reached about 120-150 mm^3 mice are randomized (typically 7 mice per group) and treated by a single (unless stated otherwise) intravenous injection of PBS (negative control) or investigated antibody-drug conjugate. Tumor volumes are measured every 3-5 days using a caliper device (length×width) and calculated using the following formula V=4/3×π×R3, where R represents the radius. Mice are sacrificed when the tumor volume exceeded 1500 mm^3 or in case of ulceration of the tumor.
# Four to five-week-old female CB-17 severe combined immunodeficient (SCID) mice were obtained from Janvier labs (Le Genest-Saint-Isle, France) and quarantined for 7 days prior to study initiation. […] Tumor volumes were measured every 3-5 days using a caliper device (length×width) and calculated using the following formula V=4/3×π×R^3, where R represents the radius. […]
# FIGURE 19 = assay: FIGURE 19
# Text: Table printed on a drawing sheet, FIGURE 19
# The patent's description of the figure: FIG. 19 represents in vivo rat pharmacokinetic assessment of total mAb, total ADC and free exatecan sub-components of conjugates, according to example 14.
# First reader's note: Pharmacokinetic parameters refer to the Total ADC analyte of each conjugate.
molecule,measurement,setting,value
B1,human FRα cell binding,[1],significant loss of binding
B2,cynomolgus recombinant FRα binding (ELISA),[2],binds equally
same,"efficacy, PA-1 xenograft",PA-1 cancer model,outperformed M-SORAV
same,AUC0-inf,FIGURE 19,3143 µM/day
same,Clearance rate,FIGURE 19,5.5 mL/day/kg
same,Vss (steady-state Vd),FIGURE 19,0.13 L/kg
same,half-life,FIGURE 19,15.2 days
